# Reference: paper PMC9649612, “Molecular docking and biochemical validation of (-)-syringaresinol-4-O-β-D-apiofuranosyl-(1→2)-β-D-glucopyranoside binding to an allosteric site in monoamine transporters” (Frontiers in Pharmacology, 2022)
# System: SERT mutant S277C/X5C
# Test: Cytoplasmic cysteine accessibility measurement (S277C reactivity with MTSEA, read out by ASP+ binding)
# Settings: 10 μM ligand + 0.2 mM MTSEA, 25 μg/ml digitonin, 5 min; compared with MTSEA alone
row,Compound,Influence of ligand on reactivity of S277C with MTSEA (inactivation of ASP+ binding)
1,"NCCc1c[nH]c2ccc(O)cc12 [5-HT, 5-hydroxytryptamine]",significantly increased the reactivity of S277C
2,(-)-Syringaresinol-4-O-β-D-apiofuranosyl-(1→2)-β-D-glucopyranoside [SAG],protect S277C from MTSEA inactivation
